Drawing on PubChem BioAssay AID588590 (National Center for Advancing Translational Sciences (NCATS), 2011), this text covers activity, negative = inhibition for 91 compounds.

Amino acid sequences for entries named in this document (tags omitted).
UniProt Q9UNA4, whole entry: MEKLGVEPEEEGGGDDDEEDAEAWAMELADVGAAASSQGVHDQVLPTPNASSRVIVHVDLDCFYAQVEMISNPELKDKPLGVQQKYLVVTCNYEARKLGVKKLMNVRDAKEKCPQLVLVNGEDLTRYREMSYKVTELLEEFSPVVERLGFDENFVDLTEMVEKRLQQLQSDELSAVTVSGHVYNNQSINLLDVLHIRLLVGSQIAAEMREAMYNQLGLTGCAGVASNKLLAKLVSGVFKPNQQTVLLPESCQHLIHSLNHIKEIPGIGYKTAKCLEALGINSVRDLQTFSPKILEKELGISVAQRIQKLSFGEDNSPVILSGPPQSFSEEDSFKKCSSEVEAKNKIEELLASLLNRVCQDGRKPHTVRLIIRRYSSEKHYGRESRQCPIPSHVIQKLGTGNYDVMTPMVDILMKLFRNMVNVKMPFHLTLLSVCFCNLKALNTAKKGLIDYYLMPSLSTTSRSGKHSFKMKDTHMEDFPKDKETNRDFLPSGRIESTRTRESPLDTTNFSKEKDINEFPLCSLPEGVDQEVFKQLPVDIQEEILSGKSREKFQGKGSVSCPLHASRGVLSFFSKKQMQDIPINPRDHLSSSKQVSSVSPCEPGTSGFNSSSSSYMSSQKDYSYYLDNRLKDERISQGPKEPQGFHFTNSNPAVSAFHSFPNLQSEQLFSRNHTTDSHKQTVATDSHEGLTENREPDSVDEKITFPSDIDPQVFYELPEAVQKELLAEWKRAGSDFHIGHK

Each structure is given as a SMILES string. This is a selection; strong and weak results do not stand in their true shares. Results filed as inconclusive are left out. Some salts or complexes appear as unconnected parts, following the source record. Active and inactive are the calls of the source. The call rests on the fitted dose curve; in most records, active means well fitted inhibition curve with a large enough effect; inconclusive means small, poorly fitted or top-dose-only effect, or another doubt; inactive means no such curve, though single readings can be large or run the other way.

The target of this assay is DNA polymerase iota (Homo sapiens) (UniProt Q9UNA4). Kind of assay: qHTS for Inhibitors of Polymerase Iota. To be noted: Pol iota fluorescent replication assay, 10 min; at 115 µM (top of the series). (In general: Quantitative high-throughput screening tests each substance at several concentrations.)
In the case of `Cc1cc(N(CCCl)CCCl)ccc1C=O`, the activity, negative = inhibition is inactive: 25.2%.

Consider `O=C(NCC1(N2CCOCC2)CCCCC1)c1ccccc1`, for which the activity, negative = inhibition is inactive: -19.1%.

Regarding `CCCN1CCC(Nc2cc(OC)cc(OC)c2)CC1`, the activity, negative = inhibition is inactive: 99.1%.

With `c1ccc(CN2CCC(Nc3ccccc3)CC2)cc1`, the activity, negative = inhibition is inactive: 12.1%.

Consider `CN(C)C1(CNC(=O)c2cccc(C#N)c2)CCCCC1`, for which the activity, negative = inhibition was inactive: 152%.

In the case of `O=C(NCC1(N2CCOCC2)CCCCC1)c1ccc([N+](=O)[O-])cc1`, the activity, negative = inhibition was inactive: 7.5%.

As for `CC(C)(C)OC(=O)N1CCC(N(C(=O)c2ccccc2)c2ccc(Cl)cc2)CC1`, the activity, negative = inhibition is inactive: 18.4%.

`N#Cc1ccc(C(=O)NCC2(N3CCCCC3)CCCCC2)cc1`: the activity, negative = inhibition is inactive: 58.1%.

Consider `O=C(NCC1(N2CCOCC2)CCCCC1)c1ccccc1[N+](=O)[O-]`, for which the activity, negative = inhibition was inactive: 0.343%.

For the compound `CCOC(=O)C(CC)C1=NC(C)(C)Cc2ccccc21.O=[N+]([O-])c1cc([N+](=O)[O-])c(O)c([N+](=O)[O-])c1` (stereo unspecified), the activity, negative = inhibition was inactive: 14.1%.

On to `N/C(=N\O)c1c(N)no[n+]1[O-]`, for which the activity, negative = inhibition was inactive: 5.28%.

As for `CCOC(=O)N1CCC(Nc2ccc(C)cc2)CC1`, the activity, negative = inhibition was inactive: 83.9%.

For the compound `O=C(O)c1cccc(Nc2c([N+](=O)[O-])cc([N+](=O)[O-])cc2[N+](=O)[O-])c1`, the activity, negative = inhibition is inactive: -8.8%.

For `O=C(OC1CN2CCC1CC2)C1c2ccccc2C=Cc2ccccc21` (stereo unspecified), the activity, negative = inhibition was inactive: -5.74%.

With `CCc1cc(C(=O)NCC2(N3CCCCC3)CCCCC2)sc1C`, the activity, negative = inhibition was inactive: 37.5%.

`O=C(NCC1(N2CCOCC2)CCCCC1)c1cc(Br)ccc1Cl`: the activity, negative = inhibition was inactive: 23.2%.

For the compound `COc1cc(C(=O)NCC2(N3CCOCC3)CCCCC2)cc(OC)c1C`, the activity, negative = inhibition is inactive: -7.01%.

Consider `COc1ccc(C(=O)NCC2(N3CCOCC3)CCCCC2)cc1OC`, for which the activity, negative = inhibition is inactive: -0.526%.

As to `O=Cc1ccc(N(CCCl)CCCl)cc1`, the activity, negative = inhibition is inactive: 34%.

With `CCC(CO)(C(=O)OC1CN2CCC1CC2)c1ccccc1` (stereo unspecified), the activity, negative = inhibition was inactive: 6.99%.

`COc1cc(OC)cc(C(=O)NCC2(N3CCOCC3)CCCCC2)c1`: the activity, negative = inhibition is inactive: 102%.

Regarding `COc1cc(C(=O)NCC2(N3CCOCC3)CCCCC2)cc(OC)c1OC`, the activity, negative = inhibition was inactive: 19.9%.

On to `COc1cccc(C(=O)N(c2cc(C)cc(C)c2)C2CCN(C(=O)OC(C)(C)C)CC2)c1`, for which the activity, negative = inhibition was inactive: 50.3%.

For `CN1CCC(Nc2ccc(Cl)cc2)CC1`, the activity, negative = inhibition was inactive: 9.53%.

`CCOc1ncccc1C(=O)NCC1(N2CCOCC2)CCCCC1`: the activity, negative = inhibition is inactive: 9.36%.

On to `CCCOc1ccc(C(=O)NCC2(N(C)C)CCCCC2)cc1`, for which the activity, negative = inhibition was inactive: 32.6%.

Regarding `ClCCN(CCCl)c1ccccc1`, the activity, negative = inhibition was inactive: 8.8%.

`O=C(O)C1(Nc2ccccc2)CCN(Cc2ccccc2)CC1`: the activity, negative = inhibition was inactive: 15.6%.

As to `CCN1CCC(Nc2cccc(F)c2)CC1`, the activity, negative = inhibition was inactive: -0.737%.

For `Cc1ccccc1NC1(C#N)CCN(Cc2ccccc2)CC1`, the activity, negative = inhibition was inactive: 11.9%.

Take `CN(C)c1ccc(C(=O)NCC2(N3CCCCC3)CCCCC2)cc1`: the activity, negative = inhibition is inactive: 60.7%.

Regarding `CC(C)(C)c1ccc(C(=O)NCC2(N3CCOCC3)CCCCC2)cc1`, the activity, negative = inhibition is inactive: 7.63%.

Regarding `O=C(NCC1(N2CCCCC2)CCCCC1)c1ccco1`, the activity, negative = inhibition is inactive: 32.5%.

`Cc1ccccc1C(=O)NCC1(N(C)C)CCCCC1`: the activity, negative = inhibition was inactive: 21.5%.

Turning to `COc1cc(OC)cc(C(=O)NCC2(N3CCCCC3)CCCCC2)c1`, the activity, negative = inhibition was inactive: 29.1%.

Consider `CC(=O)N(c1ccccc1)C1CCNCC1`, for which the activity, negative = inhibition is inactive: 7.47%.

On to `CN(C)C1(CNC(=O)c2ccc(C(C)(C)C)cc2)CCCCC1`, for which the activity, negative = inhibition was inactive: 29.5%.

In the case of `Cc1ccc(NC2(C#N)CCN(Cc3ccccc3)CC2)cc1`, the activity, negative = inhibition was inactive: 94.3%.

Regarding `Fc1ccccc1NC1CCN(Cc2ccccc2)CC1`, the activity, negative = inhibition was inactive: -11.7%.

Turning to `Cc1ccc(C(=O)NCC2(N3CCCCC3)CCCCC2)o1`, the activity, negative = inhibition is inactive: 15.4%.

Take `COc1cc(C(=O)NCC2(N(C)C)CCCCC2)ccc1OC(F)F`: the activity, negative = inhibition is inactive: -12%.

Turning to `CCOC(=O)N1CCC(Nc2cccc(C)c2)CC1`, the activity, negative = inhibition was inactive: -4.61%.

Take `CCOc1ccc(C)cc1CN(CCCl)CCCl`: the activity, negative = inhibition is inactive: 133%.

`O=C1CCN(Cc2ccccc2)CC1`: the activity, negative = inhibition was inactive: 8.13%.

For the compound `O=C(NCC1(N2CCOCC2)CCCCC1)c1ccc(Cl)cc1`, the activity, negative = inhibition was inactive: 5.64%.

On to `COc1ccc(NC2CCN(CCc3ccccc3)CC2)c(OC)c1`, for which the activity, negative = inhibition was inactive: 18.2%.

With `O=C(NCC1(N2CCCCC2)CCCCC1)c1ccc(F)cc1`, the activity, negative = inhibition is inactive: 39.3%.

Consider `O=P1(N(CCCl)CCCl)SCCCS1`, for which the activity, negative = inhibition was inactive: 37.6%.

Turning to `CCCCOc1ccc(C(=O)NCC2(N3CCOCC3)CCCCC2)cc1`, the activity, negative = inhibition was inactive: 48.3%.

With `COc1ccccc1C(=O)NCC1(N2CCOCC2)CCCCC1`, the activity, negative = inhibition is inactive: 13.6%.

Regarding `O=C(NCC1(N2CCOCC2)CCCCC1)c1cc2ccccc2o1`, the activity, negative = inhibition is inactive: 9.7%.

Take `Cc1cc(C)cc(N(C(=O)c2ccccc2)C2CCN(C(=O)OC(C)(C)C)CC2)c1`: the activity, negative = inhibition is inactive: 31.2%.

As to `O=C(NCC1(N2CCCCC2)CCCCC1)c1ccc(Cl)nc1`, the activity, negative = inhibition was inactive: -4.66%.

For the compound `CCOC(=O)N1CCC(Nc2ccc(OC)cc2)CC1`, the activity, negative = inhibition is inactive: 3.99%.

With `COc1ccc(Cl)cc1C(=O)NCC1(N2CCOCC2)CCCCC1`, the activity, negative = inhibition is inactive: 1.14%.

As for `O=C(OC1CN2CCC1CC2)C1c2ccccc2Oc2ccccc21` (stereo unspecified), the activity, negative = inhibition was inactive: 20.3%.

For the compound `N#CC1(Nc2ccccc2)CCN(Cc2ccccc2)CC1`, the activity, negative = inhibition was inactive: -13.6%.

Consider `O=C(NCC1(N2CCCCC2)CCCCC1)c1ccc(Cl)s1`, for which the activity, negative = inhibition is inactive: 5.42%.

In the case of `O=C(NCC1(N2CCCCC2)CCCCC1)c1cccs1`, the activity, negative = inhibition was inactive: 12.3%.

As for `O=C(NCC1(N2CCCCC2)CCCCC1)c1ccc(=O)[nH]c1`, the activity, negative = inhibition is inactive: 19.1%.

`CC(C)(C)OC(=O)N1CCC(N(C(=O)c2ccccc2)c2ccc(F)cc2)CC1`: the activity, negative = inhibition is inactive: -12.5%.

With `COc1ccc(C(=O)NCC2(N3CCCCC3)CCCCC2)cc1`, the activity, negative = inhibition is inactive: 39.1%.

Turning to `Cc1cccc(NC2(C#N)CCN(Cc3ccccc3)CC2)c1`, the activity, negative = inhibition is inactive: 58.2%.

For `CSc1ccccc1C(=O)NCC1(N2CCCCC2)CCCCC1`, the activity, negative = inhibition was inactive: 27%.

Take `COc1ccc2c(c1O)-c1c(O)c(OC)cc3c1[C@H](C2)[N+](C)(C)CC3.O=[N+]([O-])c1cc([N+](=O)[O-])c([O-])c([N+](=O)[O-])c1[O-]`: the activity, negative = inhibition is inactive: 46.8%.

With `O=C(NCC1(N2CCCCC2)CCCCC1)c1cncc(Br)c1`, the activity, negative = inhibition is inactive: 16.9%.

Regarding `CN1CCC(Nc2cccc(F)c2)CC1`, the activity, negative = inhibition was inactive: 19.9%.

As for `O=C(OC1CN2CCC1CC2)c1ccc([N+](=O)[O-])cc1` (stereo unspecified), the activity, negative = inhibition is inactive: 2.36%.

Consider `CCCOc1ccc(C(=O)NCC2(N(C)C)CCCCC2)cc1OC`, for which the activity, negative = inhibition was inactive: 20.9%.

As to `O=C(NCC1(N2CCOCC2)CCCCC1)c1ccccc1Br`, the activity, negative = inhibition was inactive: -5.86%.

In the case of `CCCCOc1ccccc1C(=O)NCC1(N2CCOCC2)CCCCC1`, the activity, negative = inhibition is inactive: -7.64%.

With `O=[N+]([O-])c1cc([N+](=O)[O-])c(OC2CCCCC2O)c([N+](=O)[O-])c1` (stereo unspecified), the activity, negative = inhibition was inactive: 25.9%.

As for `CN(C)c1cccc(C(=O)NCC2(N3CCCCC3)CCCCC2)c1`, the activity, negative = inhibition is inactive: 0.458%.

Consider `COc1ccc(CN(CCCl)CCCl)cc1Cl`, for which the activity, negative = inhibition was inactive: 13.6%.

With `CC(C)c1ccc(NC2CCN(C(=O)OC(C)(C)C)CC2)cc1`, the activity, negative = inhibition is inactive: 46.9%.

As for `O=C(NCC1(N2CCOCC2)CCCCC1)c1cc(F)c(F)cc1Cl`, the activity, negative = inhibition is inactive: 23.2%.

As for `COc1cc(OC)c(C(=O)NCC2(N(C)C)CCCCC2)cc1OC`, the activity, negative = inhibition was inactive: 25.3%.

`CCCOc1cccc(C(=O)NCC2(N3CCOCC3)CCCCC2)c1`: the activity, negative = inhibition was inactive: -5.72%.

`O=C(NCC1(N2CCCCC2)CCCCC1)c1cccc(C(F)(F)F)c1`: the activity, negative = inhibition was inactive: -2.92%.

In the case of `O=[N+]([O-])c1cc([N+](=O)[O-])c(NCC2CCS(=O)(=O)C2)c([N+](=O)[O-])c1` (stereo unspecified), the activity, negative = inhibition was inactive: 1.61%.

Turning to `CN1CCN(CCOC(=O)C(O)(c2ccccc2)c2ccccc2)CC1`, the activity, negative = inhibition was inactive: -14.7%.

As to `CC(C)c1ccc(C(=O)NCC2(N3CCOCC3)CCCCC2)cc1`, the activity, negative = inhibition was inactive: 12.8%.

Consider `COc1ccc(NC2CCN(C(=O)OC(C)(C)C)CC2)cc1`, for which the activity, negative = inhibition is inactive: 22.9%.

Regarding `COc1cc(C(=O)NCC2(N3CCCCC3)CCCCC2)ccc1OC(F)F`, the activity, negative = inhibition is inactive: 14.4%.

For the compound `O=C(NCC1(N2CCOCC2)CCCCC1)c1cc(=O)[nH]c2ccccc12`, the activity, negative = inhibition is inactive: 23.2%.

Consider `O=C(NCC1(N2CCCCC2)CCCCC1)c1ccc(OC(F)F)cc1`, for which the activity, negative = inhibition was inactive: 129%.

Take `CSc1ccc(C(=O)NCC2(N3CCOCC3)CCCCC2)cc1`: the activity, negative = inhibition was inactive: 25.2%.

On to `CCOc1ccc(C(=O)NCC2(N3CCOCC3)CCCCC2)cc1`, for which the activity, negative = inhibition is inactive: -5.27%.

For `O=C(NCC1(N2CCCCC2)CCCCC1)c1cccc([N+](=O)[O-])c1`, the activity, negative = inhibition was inactive: -0.978%.

Turning to `N#CC1(Nc2ccccc2)CCN(CCc2ccccc2)CC1`, the activity, negative = inhibition was inactive: 20.9%.

Turning to `CCN1CCC(Nc2ccc(Cl)cc2)CC1`, the activity, negative = inhibition was inactive: 6.01%.
